# PMC3560935 (Anesthesiology, 2011)
# Amino acid sequences for entries named in this document (tags omitted).
# UniProt P41143, whole entry: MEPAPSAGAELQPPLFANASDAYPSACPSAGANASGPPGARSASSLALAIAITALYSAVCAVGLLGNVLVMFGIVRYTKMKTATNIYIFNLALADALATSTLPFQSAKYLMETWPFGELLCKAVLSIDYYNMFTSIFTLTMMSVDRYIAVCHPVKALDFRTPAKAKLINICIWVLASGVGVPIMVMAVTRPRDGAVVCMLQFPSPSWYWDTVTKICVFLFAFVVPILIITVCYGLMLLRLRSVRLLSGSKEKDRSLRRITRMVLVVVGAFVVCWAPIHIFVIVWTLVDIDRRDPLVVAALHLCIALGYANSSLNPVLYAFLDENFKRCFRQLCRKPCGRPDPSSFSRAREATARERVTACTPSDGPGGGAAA
# Molecular target: human delta opioid receptor (Homo sapiens, UniProt P41143)
# Format: binding
smiles,measurement,setting,value
"CO[C@]12CC[C@@]3(C[C@@H]1[C@](C)(O)C(C)(C)C)[C@H]1Cc4ccc(O[C@@H]5O[C@H](C(=O)O)[C@@H](O)[C@H](O)[C@H]5O)c5c4[C@@]3(CCN1CC1CC1)[C@H]2O5 [Buprenorphine-3-glucuronide, buprenorphine-3-glucuronide]",inhibition of 3H-diprenorphine delta receptor binding (in words),,Ki in the nanomolar range
same,Ki,"read-out: apparent Ki, Delta",270 ± 0.4 nM
